The text below walks through data of US8211885B2, “Cyclic indole-3-carboxamides, their preparation and their use as pharmaceuticals” (Sanofi-Aventis, priority 2008, dated 2012).

Amino acid sequences for entries named in this document (tags omitted). Residues count along the entry.
UniProt P00797, 67-406: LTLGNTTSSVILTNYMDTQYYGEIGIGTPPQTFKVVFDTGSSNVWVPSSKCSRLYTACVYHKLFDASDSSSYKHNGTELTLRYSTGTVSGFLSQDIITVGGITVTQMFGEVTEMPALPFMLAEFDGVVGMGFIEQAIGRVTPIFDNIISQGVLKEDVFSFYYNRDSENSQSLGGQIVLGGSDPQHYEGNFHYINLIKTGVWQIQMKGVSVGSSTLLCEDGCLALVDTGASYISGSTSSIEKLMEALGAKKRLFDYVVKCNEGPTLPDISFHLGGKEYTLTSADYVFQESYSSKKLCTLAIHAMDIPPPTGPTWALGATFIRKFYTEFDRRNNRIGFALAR

In this assay the target is Recombinant human renin (Homo sapiens, UniProt P00797). The experiment in a line: Inhibition of renin (fluorogenic peptide substrate).
Setting [1] is: read-out: IC50 values for inhibition of renin (fluorogenic peptide substrate), renin 5 nM, substrate Dabcyl-γ-Abu-[…]-EDANS 10 μM, 2 h room temperature, Tris buffer pH 8, compounds tested as the obtained salt.

For orientation: IC50 means the midpoint of a concentration-inhibition curve.

Structures are written as SMILES. Read-outs that look alike come from different tables or passages of the source.

For `O=C(c1c(Cc2c(F)cccc2Cl)n(-c2ccccc2)c2ccccc12)N1CCNCC1` [Example 17, [2-(2-Chloro-6-fluoro-benzyl)-1-phenyl-1H-indol-3-yl]-piperazin-1-yl-methanone], the concentration for half-maximal inhibition (IC50) under setting [1] was 0.018 µM.

In the case of `Cc1c(F)cccc1Cc1c(C(=O)N2CCNCC2)c2ccc(OCCO)cc2n1-c1ccccc1` [Example 25, [2-(3-Fluoro-2-methyl-benzyl)-6-(2-hydroxy-ethoxy)-1-phenyl-1H-indol-3-yl]-piperazin-1-yl-methanone], the 50% inhibitory concentration (IC50) under setting [1] is 0.031 µM.

On to `Cc1ccc(F)cc1Oc1c(C(=O)N2CCNCC2)c2cc(C(N)=O)ccc2n1-c1ccccc1` [Example 29, 2-(5-Fluoro-2-methyl-phenoxy)-1-phenyl-3-(piperazine-1-carbonyl)-1H-indole-5-carboxylic acid amide], for which the concentration for half-maximal inhibition (IC50) came out at 0.0055 µM.

Regarding `Cc1c(F)cccc1Cc1c(C(=O)N2CCNCC2)c2ccccc2n1C1CCCCC1` [Example 32, [1-Cyclohexyl-2-(3-fluoro-2-methyl-benzyl)-1H-indol-3-yl]-piperazin-1-yl-methanone], under setting [1], the IC50 is 0.034 µM.

For the compound `O=C(c1c(Oc2ccccc2)n(-c2ccc(F)cc2)c2ccccc12)N1CCNCC1` [Example 91], the 50% inhibitory concentration (IC50) under setting [1] came out at 0.71 µM.
